# Experimental data: publication PMC9851200, “Multiparameter phenotypic screening for endogenous TFEB and TFE3 translocation identifies novel chemical series modulating lysosome function” (Autophagy, 2022)
# Amino acid sequences for entries named in this document (tags omitted).
# UniProt Q16539, whole entry: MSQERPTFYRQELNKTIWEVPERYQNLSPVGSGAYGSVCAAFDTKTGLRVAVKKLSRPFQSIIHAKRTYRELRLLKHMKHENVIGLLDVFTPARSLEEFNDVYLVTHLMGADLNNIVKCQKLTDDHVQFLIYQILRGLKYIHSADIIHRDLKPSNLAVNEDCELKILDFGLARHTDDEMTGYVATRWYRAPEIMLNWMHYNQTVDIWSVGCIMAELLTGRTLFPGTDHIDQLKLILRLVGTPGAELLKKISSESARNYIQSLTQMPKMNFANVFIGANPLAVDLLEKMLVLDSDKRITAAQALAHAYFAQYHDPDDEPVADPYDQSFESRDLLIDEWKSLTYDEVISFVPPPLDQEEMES
# What was measured:
# [1] = target: cellular kinases of SH-SY5Y cells (Homo sapiens, UniProt Q16539); assay: biochemical; settings: read-out: KiNativ in-cell binding, % Inhibition, MAPK14/p38a
# PRKD3 = target: T1, PRKD3 (Homo sapiens, UniProt O94806); settings: read-out: IC50 PRKD3; cited from earlier work
# T1 sequence (O94806 1-890): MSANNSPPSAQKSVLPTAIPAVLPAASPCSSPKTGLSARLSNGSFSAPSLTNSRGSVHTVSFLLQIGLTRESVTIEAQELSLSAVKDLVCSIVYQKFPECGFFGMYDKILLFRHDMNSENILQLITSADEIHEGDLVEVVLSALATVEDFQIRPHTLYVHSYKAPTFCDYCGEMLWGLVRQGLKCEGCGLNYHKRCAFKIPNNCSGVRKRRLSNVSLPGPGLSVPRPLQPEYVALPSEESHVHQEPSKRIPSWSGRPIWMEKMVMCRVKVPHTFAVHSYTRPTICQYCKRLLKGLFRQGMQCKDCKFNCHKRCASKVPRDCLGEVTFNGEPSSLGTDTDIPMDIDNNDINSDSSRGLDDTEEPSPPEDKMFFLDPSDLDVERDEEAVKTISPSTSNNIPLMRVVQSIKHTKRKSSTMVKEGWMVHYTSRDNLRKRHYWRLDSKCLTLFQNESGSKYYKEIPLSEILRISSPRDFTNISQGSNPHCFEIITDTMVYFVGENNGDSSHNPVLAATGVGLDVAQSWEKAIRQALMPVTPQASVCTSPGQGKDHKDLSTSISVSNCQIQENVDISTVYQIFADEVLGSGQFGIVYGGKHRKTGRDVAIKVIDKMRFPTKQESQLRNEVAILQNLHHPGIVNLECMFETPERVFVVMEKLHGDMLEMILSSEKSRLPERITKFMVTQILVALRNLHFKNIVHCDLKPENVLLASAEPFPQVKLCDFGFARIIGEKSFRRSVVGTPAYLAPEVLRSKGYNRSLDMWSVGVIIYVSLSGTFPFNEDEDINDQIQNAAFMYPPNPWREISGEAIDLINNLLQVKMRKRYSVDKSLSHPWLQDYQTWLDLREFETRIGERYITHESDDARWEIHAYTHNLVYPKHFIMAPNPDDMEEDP
# ACVR1B = target: T2, ACVR1B (Homo sapiens, UniProt P36896); assay: KINOMEscan ACVR1B; assay type: binding
# T2 sequence (P36896 24-505): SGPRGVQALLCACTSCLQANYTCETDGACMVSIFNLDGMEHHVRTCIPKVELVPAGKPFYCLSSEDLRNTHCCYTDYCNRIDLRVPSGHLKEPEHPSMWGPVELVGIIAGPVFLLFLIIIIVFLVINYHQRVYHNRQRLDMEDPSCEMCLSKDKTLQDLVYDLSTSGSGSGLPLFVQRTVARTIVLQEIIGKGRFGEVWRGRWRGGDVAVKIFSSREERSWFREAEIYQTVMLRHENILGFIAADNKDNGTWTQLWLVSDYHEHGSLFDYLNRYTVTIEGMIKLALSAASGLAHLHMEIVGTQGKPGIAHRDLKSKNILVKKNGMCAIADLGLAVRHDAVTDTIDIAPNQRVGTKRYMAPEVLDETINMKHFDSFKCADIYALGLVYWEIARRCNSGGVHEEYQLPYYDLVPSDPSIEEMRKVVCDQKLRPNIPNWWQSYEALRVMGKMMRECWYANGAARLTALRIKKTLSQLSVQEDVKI
structure (smiles),measurement,setting,value
Cc1cccc(-c2nc(Nc3ccc4ncsc4c3)c3ccccc3n2)n1 [NK140],inhibition at 2 µM,[1],17.7%
CC[C@@H](N)CNc1ccnc(-c2cc(-c3cnn(C)c3)ccc2O)n1 [CRT0066101],IC50,PRKD3,2 nM
Cc1cccc(-c2nc(Nc3ccc4ncoc4c3)c3ccccc3n2)n1 [NK176],KINOMEscan ACVR1B,ACVR1B,58
